Source: patent publication US7776527B2, “Methods and compositions for reducing microbial induced apoptosis” (The Regents of the University of California, priority 2003, dated 2010)

System: bone marrow derived macrophages (BMDMs)
Type: cell-based, mouse

B1: IFN-β: type I IFN (protein, UniProt P01574 22-187, looked up)
Interferon beta: MSYNLLGFLQRSSNFQCQKLLWQLNGRLEYCLKDRMNFDIPEEIKQLQQFQKEDAALTIYEMLQNIFAIFRQDSSSTGWNETIVENLLANVYHQINHLKTVLEEKLEKEDFTRGKLMSSLHLKRYYGRILHYLKAKEYSHCAWTIVRVEILRNFYFINRLTGYLRN
IFN-β 1000 U/ml alone, 18 hrs
  apoptosis of BMDMs, agent alone: did not induce apoptosis
With LPS, without SB202190
  sensitization of BMDMs to LPS-induced apoptosis: rendered them susceptible to LPS-induced apoptosis
Wt BMDMs or J774A.1 macrophage-like cells
  effect on apoptosis upon incubation with LPS+SB202190: potentiated the apoptosis
